Test: Autoradiography of the prostate after transurethral catheter injection of tritium labeled agent
[1] = 12 hours after transurethral injection of 100 uCi 3H-testosterone
[2] = 48 hours after transurethral injection of 100 uCi 3H-testosterone

## 3H-testosterone [tritium labeled testosterone]
[1]
  free (extra-nuclear) activity in prostate: periphery of the gland. Practically no free (extra-nuclear)
  glandular nuclear activity (autoradiographic labeling) in prostate: Strong, selective glandular (but not stromal or muscular)
[2]
  extra-nuclear labeling in prostate: covers the whole prostate, minimal scattered extra-nuclear
  glandular nuclear activity (autoradiographic labeling) in prostate: Still strong, although somewhat less activity over the

Source: patent US7837670B2, “Methods and devices for delivering therapeutic agents into the prostate gland” (Boston Scientific Scimed, Inc., priority 2005, dated 2010)
